# Measurements reported in patent US12171768B2, “IRAK4 degraders and uses thereof” (priority 2021, dated 2024).
# Read-outs that look alike come from different tables or passages of the source.
# Experiments:
# [1] = rat NOAEL, relative to predicted human AUC
# [2] = dog NOAEL, relative to predicted human AUC
smiles,measurement,setting,value
"Cn1c(=O)n([C@@H]2CCC(=O)NC2=O)c2cccc(C#CCOC3CCN(C[C@H]4CC[C@H](n5cc(NC(=O)c6cnn7ccc(N8C[C@H]9C[C@@H]8CO9)nc67)c(C(F)F)n5)CC4)CC3)c21 [Compound A, 5-((1R,4R)-2-oxa-5-azabicyclo[2.2.1]heptan-5-yl)-N-(3-(difluoromethyl)-1-((1r,4R)-4-((4-((3-(1-(2,6-dioxopiperidin-3-yl)-3-methyl-2-oxo-2,3-dihydro-1H-benzo[d]imidazol-4-yl)prop-2-yn-1-yl)oxy)piperidin-1-yl)methyl)cyclohexyl)-1H-pyrazol-4-yl)pyrazolo[1,5-a]pyrimidine-3-carboxamide]",Exposure safety margin for the starting dose of 25 mg based on AUC at NOAEL,[1],79 fold
same,Exposure safety margin for the starting dose of 25 mg based on AUC at NOAEL,[2],159 fold
